Laboratory results reported in doi:10.1101/2022.11.28.518222.
Like-named read-outs stand apart in the source and are kept apart here.

Key:
Assay in all cases: MST
recombinant IRF6 protein [1] = molecular target: recombinant IRF6 protein (UniProt O14896)
recombinant IRF6 protein [2] = molecular target: recombinant IRF6 protein (UniProt O14896); remark: listed apart in the source
recombinant IRF6 protein [3] = molecular target: recombinant IRF6 protein (UniProt O14896); remark: listed apart in the source
recombinant IRF6 protein [4] = molecular target: recombinant IRF6 protein (UniProt O14896); remark: listed apart in the source
recombinant IRF6 protein [5] = molecular target: recombinant IRF6 protein (UniProt O14896); remark: listed apart in the source

Kd (recombinant IRF6 protein [1]): 2.34 µM | Kd (recombinant IRF6 protein [2]): 3.13 µM | Kd (recombinant IRF6 protein [3]): 0.23 µM | Kd (recombinant IRF6 protein [4]): 234 µM | Kd (recombinant IRF6 protein [5]): 0.48 µM
Substance: recombinant IRF6 protein (from UniProt O14896 1-467) (natural protein)
